Reference: patent US7795456B2, “Insecticidal N-substituted sulfoximines” (Dow AgroSciences LLC, priority 2004, dated 2010)

Tests used:
[1] = test system: fruit fly (Drosophila melanogaster); assay: Insecticidal test for fruit fly, dietary; settings: 25 μg/cm2, 4 h
[2] = test system: yellow fever mosquito (Aedes aegypti) larvae; assay: Insecticidal test for mosquito, submerge test; format: in vivo; settings: 72 h
[3] = test system: green peach aphid (Myzus persicae); assay: Insecticidal test for green peach aphid, foliar spray on cabbage seedlings; settings: rundown assay, 3 days
[4] = test system: beet armyworm (Spodoptera exigua); assay: Insecticidal test for beet armyworm in injection assays; settings: 4th instar, 1 h observation
[5] = test system: sweet potato whitefly (Bemisia tabaci); assay: Insecticidal test for sweet potato whitefly, foliar spray on cotton; settings: 13 or 14 days, Corrected % Control
[6] = test system: cotton aphid (Aphis gossypii); assay: Insecticidal test for cotton aphid, foliar spray on squash

For `O=[N+]([O-])N=S1(=O)CCCC1`, the “FF SYM: % showing intoxicated symptoms at 25 μg/cm2 against fruit fly in dietary tests” value [1] was “G”, the “YFM 26: % control at 26 ppm against yellow fever mosquito in submerge tests” value [2] was “G” and the “% Control at ppm, against green peach aphid: 0.049” value ([3]; 0.049 ppm) was “F (Less than 50)”. The “% Control at ppm, against green peach aphid: 0.195” value ([3]; 0.195 ppm) was “F (Less than 50)”, the “% Control at ppm, against green peach aphid: 0.78” value ([3]; 0.78 ppm) was “E (50-59)” and the “% Control at ppm, against green peach aphid: 3.12” value ([3]; 3.12 ppm) was “D (60-69)”. For the same compound, the “% Control at ppm, against green peach aphid: 12.5” value ([3]; 12.5 ppm) was “D (60-69)”, the “% Control at ppm, against green peach aphid: 50” value ([3]; 50 ppm) was “D (60-69)” and the “BAW SYM: % showing intoxicated symptoms at 10 μg/larva against beet armyworm in injection tests” value [4] was “F (Less than 50)”. The “SPW 200: % control at 200 ppm against sweet potato whitefly in foliar spray tests” value [5] was “G”, the “% Control at ppm, against cotton aphid: 0.049” value ([6]; 0.049 ppm, rundown assay) was “C (70-79)” and the “% Control at ppm, against cotton aphid: 0.195” value ([6]; 0.195 ppm, rundown assay) was “B (80-89)”. The “% Control at ppm, against cotton aphid: 0.78” value ([6]; 0.78 ppm, rundown assay) was “B (80-89)”, the “% Control at ppm, against cotton aphid: 3.12” value ([6]; 3.12 ppm, rundown assay) was “A (90-100)” and the “% Control at ppm, against cotton aphid: 12.5” value ([6]; 12.5 ppm, rundown assay) was “A (90-100)”. For the same compound, the “CA 50: % control at 50 ppm against cotton aphid in foliar spray tests” value ([6]; 50 ppm, foliar spray, 3 days, Corrected % Control (Abbott)) was “A (90-100)”, the “% Control at ppm, against cotton aphid: 50” value ([6]; 50 ppm, rundown assay) was “A (90-100)” and the “CA 200: % control at 200 ppm against cotton aphid in foliar spray tests” value ([6]; 200 ppm, foliar spray, 3 days, Corrected % Control (Abbott)) was “A (90-100)”.
